# According to ChEMBL document CHEMBL1124245, “Investigation of the structural parameters involved in the mu and delta opioid receptor discrimination of linear enkephalin-related peptides” (J Med Chem, 1988):
# Amino acid sequences for entries named in this document (tags omitted).
# UniProt P33535, whole entry: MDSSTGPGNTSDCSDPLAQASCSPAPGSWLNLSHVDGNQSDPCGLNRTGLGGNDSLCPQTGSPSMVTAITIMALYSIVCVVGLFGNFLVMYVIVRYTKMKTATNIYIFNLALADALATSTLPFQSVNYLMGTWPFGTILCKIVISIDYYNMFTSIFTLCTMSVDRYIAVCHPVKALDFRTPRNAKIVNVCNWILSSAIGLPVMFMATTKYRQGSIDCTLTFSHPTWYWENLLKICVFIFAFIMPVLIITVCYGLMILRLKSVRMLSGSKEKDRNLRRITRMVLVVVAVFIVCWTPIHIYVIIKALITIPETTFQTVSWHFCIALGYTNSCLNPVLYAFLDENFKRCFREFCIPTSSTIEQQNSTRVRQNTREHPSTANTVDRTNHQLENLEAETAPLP
# Target: Mu-type opioid receptor (Rattus norvegicus, UniProt P33535)
# Assay: Inhibition of [3H]DAGO binding to mu 1 opioid receptor in rat brain membranes
# Assay type: cell membranes
# Procedure, shortened: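 Rat brain membranes, 0.6–0.7 mg protein, in 50 mM Tris-HCl pH 7.4 with 1 nM [3H]DAGO. Incubated 40 min at 35 °C, then filtered and washed with cold buffer. Bound radioactivity counted by scintillation. Nonspecific binding taken with 10 µM levorphanol, triplicates. Nine unlabeled-ligand concentrations, Hill-plot fit, Ki by Cheng-Prusoff. Three to six independent determinations.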
structure (smiles),measurement,value
C[C@@H](NC(=O)[C@@H](N)Cc1ccc(O)cc1)C(=O)NCC(=O)N(C)[C@@H](Cc1ccccc1)C(=O)NCCO [DAMGO],Ki,3.9 nM
